Source: US9012461B2 (dated 2015)

system: MDA-231-LNA cells; assay: not given; details: 3 days

`NC(=O)Cc1ccccc1CCc1nc(Nc2ccc(N3CCNCC3)cc2)ncc1C(F)(F)F` [Compound 1, 2-(2-(2-(2-((4-(piperazin-1-yl)phenyl)amino)-5-(trifluoromethyl)pyrimidin-4-yl)ethyl)phenyl)acetamide] and `CN1CCN(c2ccc(Nc3ncc(C(F)(F)F)c(CCc4ccccc4CC(N)=O)n3)cc2)CC1` [Compound 3, 2-(2-(2-(2-((4-(4-Methylpiperazin-1-yl)phenyl)amino)-5-(trifluoromethyl)pyrimidin-4-yl)ethyl)phenyl)acetamide] are within 1.5-fold of each other in IC50: 1150 nM for the first, 1630 nM for the second.

`NC(=O)Cc1ccccc1CCc1nc(Nc2ccc(C3CCCNC3)cc2)ncc1C(F)(F)F` (stereo not drawn) [Compound 4, 2-(2-(2-(2-((4-(Piperidin-3-yl)phenyl)amino)-5-(trifluoromethyl)pyrimidin-4-yl)ethyl)phenyl)acetamide] and `NC(=O)Cc1ccccc1CCc1nc(Nc2ccc(C3CCNCC3)cc2)ncc1C(F)(F)F` [Compound 11, 2-(2-(2-(2-((4-(piperidin-4-yl)phenyl)amino)-5-(trifluoromethyl)pyrimidin-4-yl)ethyl)phenyl)acetamide] are within 1.5-fold of each other in IC50: 1730 nM for the first, 2250 nM for the second.

`CN1CCCC(c2ccc(Nc3ncc(C(F)(F)F)c(CCc4ccccc4CC(N)=O)n3)cc2)C1` (stereo not drawn) [Compound 5, 2-(2-(2-(2-((4-(1-Methylpiperidin-3-yl)phenyl)amino)-5-(trifluoromethyl)pyrimidin-4-yl)ethyl)phenyl)acetamide] and `CN1CCC(c2ccc(Nc3ncc(C(F)(F)F)c(CCc4ccccc4CC(N)=O)n3)cc2)CC1` [Compound 16, 2-(2-(2-(2-((4-(1-methylpiperidin-4-yl)phenyl)amino)-5-(trifluoromethyl)pyrimidin-4-yl)ethyl)phenyl)acetamide] are within 1.5-fold of each other in IC50: 1540 nM for the first, 2000 nM for the second.

Compared with `CN1CCCC(c2ccc(Nc3ncc(C(F)(F)F)c(CCc4ccccc4CC(N)=O)n3)cc2)C1` (stereo not drawn) [Compound 7, 2-(2-(2-(2-((4-(1-Methylpiperidin-3-yl)phenyl)amino)-5-(trifluoromethyl)pyrimidin-4-yl)ethyl)phenyl)acetamide], `CN1CCCCC1c1ccc(Nc2ncc(C(F)(F)F)c(CCc3ccccc3CC(N)=O)n2)cc1` (stereo not drawn) [Compound 9, 2-(2-(2-(2-((4-(1-methylpiperidin-2-yl)phenyl)amino)-5-(trifluoromethyl)pyrimidin-4-yl)ethyl)phenyl)acetamide] is 2.1-fold higher in IC50: 1730 nM for the first, 3580 nM for the second. The first is the more potent here.

`NC(=O)Cc1ccccc1CCc1nc(Nc2ccc(C3CCCCN3)cc2)ncc1C(F)(F)F` (stereo not drawn) [Compound 8, 2-(2-(2-(2-((4-(Piperidin-2-yl)phenyl)amino)-5-(trifluoromethyl)pyrimidin-4-yl)ethyl)phenyl)acetamide] and `NC(=O)Cc1ccccc1CCc1nc(Nc2ccc(C3CNCCO3)cc2)ncc1C(F)(F)F` (stereo not drawn) [Compound 22, 2-(2-(2-(2-((4-(Morpholin-2-yl)phenyl)amino)-5-(trifluoromethyl)pyrimidin-4-yl)ethyl)phenyl)acetamide] are within 1.5-fold of each other in IC50: 1160 nM for the first, 1070 nM for the second.

Going from `CC(C(N)=O)c1ccccc1CCc1nc(Nc2ccc(C3CCNCC3)cc2)ncc1C(F)(F)F` (stereo not drawn) [Compound 12, 2-(2-(2-(2-((4-(piperidin-4-yl)phenyl)amino)-5-(trifluoromethyl)pyrimidin-4-yl)ethyl)phenyl)propanamide] to `CCN1CCC(c2ccc(Nc3ncc(C(F)(F)F)c(CCc4ccccc4CC(N)=O)n3)cc2)CC1` [Compound 31, 2-(2-(2-(2-((4-(1-Ethylpiperidin-4-yl)phenyl)amino)-5-(trifluoromethyl)pyrimidin-4-yl)ethyl)phenyl)acetamide], the IC50 rises from 1700 nM to 4100 nM (2.4-fold).

Compared with `NC(=O)Cc1ccccc1CCc1nc(Nc2ccc(N3CCC(N)CC3)cc2)ncc1C(F)(F)F` [Compound 20, 2-(2-(2-(2-((4-(4-Aminopiperidin-1-yl)phenyl)amino)-5-(trifluoromethyl)pyrimidin-4-yl)ethyl)phenyl)acetamide], `NC(=O)Cc1ccccc1CCc1nc(Nc2ccc3c(c2)CCNC3)ncc1C(F)(F)F` [Compound 21, 2-(2-(2-(2-((1,2,3,4-Tetrahydroisoquinolin-6-yl)amino)-5-(trifluoromethyl)pyrimidin-4-yl)ethyl)phenyl)acetamide] is 1.8-fold lower in IC50: 1460 nM for the first, 800 nM for the second. The second is the more potent here.

`NC(=O)Cc1nccnc1CCc1nc(Nc2ccc(C3CCNCC3)cc2)ncc1C(F)(F)F` [Compound 26, 2-(3-(2-(2-((4-(Piperidin-4-yl)phenyl)amino)-5-(trifluoromethyl)pyrimidin-4-yl)ethyl)pyrazin-2-yl)acetamide] and `NC(=O)Cc1cncnc1CCc1nc(Nc2ccc(C3CCNCC3)cc2)ncc1C(F)(F)F` [Compound 29, 2-(4-(2-(2-((4-(Piperidin-4-yl)phenyl)amino)-5-(trifluoromethyl)pyrimidin-4-yl)ethyl)pyrimidin-5-yl)acetamide] cannot be ordered by IC50: greater than 5500 nM for the first, greater than 5000 nM for the second.

`CN1CCC(c2ccc(Nc3ncc(C(F)(F)F)c(CCc4ncccc4CC(N)=O)n3)cc2)CC1` [Compound 33, 2-(2-(2-(2-((4-(1-Methylpiperidin-4-yl)phenyl)amino)-5-(trifluoromethyl)pyrimidin-4-yl)ethyl)pyridin-3-yl)acetamide] showed an IC50 of 1520 nM.

system: MDA-231-LNA primary tumours; assay: Combination study, MDA-231-LNA orthotopic xenograft model; type: in vivo, Balb/c SCID mice; details: single agent, p.o. 54 mg/kg BID, after 13 days of dosing

In the case of `CN1CCC(c2ccc(Nc3ncc(C(F)(F)F)c(CCc4ccccc4CC(N)=O)n3)cc2)CC1` [Compound 16, 2-(2-(2-(2-((4-(1-methylpiperidin-4-yl)phenyl)amino)-5-(trifluoromethyl)pyrimidin-4-yl)ethyl)phenyl)acetamide], the “decrease in CD31+ vascular density in tumours” value is reported as 50%.
